ChEMBL document CHEMBL5316351, “Development of a Covalent Inhibitor of c-Jun N-Terminal Protein Kinase (JNK) 2/3 with Selectivity over JNK1” (J Med Chem, 2023)

Protein sequences, listed by entry. Tags and fused reporters are not part of them. Lines headed by an entry give the natural chain unless they say otherwise; changes in a name come on top.
UniProt P45983: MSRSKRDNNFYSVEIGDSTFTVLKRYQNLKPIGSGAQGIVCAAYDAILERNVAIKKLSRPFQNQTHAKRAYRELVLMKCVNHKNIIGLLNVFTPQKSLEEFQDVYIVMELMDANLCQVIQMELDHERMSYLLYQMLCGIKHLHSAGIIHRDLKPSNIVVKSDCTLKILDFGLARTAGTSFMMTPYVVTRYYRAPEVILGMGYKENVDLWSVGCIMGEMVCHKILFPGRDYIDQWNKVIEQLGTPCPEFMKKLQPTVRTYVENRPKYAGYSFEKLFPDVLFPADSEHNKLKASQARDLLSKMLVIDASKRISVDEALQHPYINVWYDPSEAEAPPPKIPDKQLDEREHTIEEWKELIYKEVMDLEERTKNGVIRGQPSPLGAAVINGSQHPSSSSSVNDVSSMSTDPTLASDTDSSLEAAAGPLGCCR
UniProt P45984: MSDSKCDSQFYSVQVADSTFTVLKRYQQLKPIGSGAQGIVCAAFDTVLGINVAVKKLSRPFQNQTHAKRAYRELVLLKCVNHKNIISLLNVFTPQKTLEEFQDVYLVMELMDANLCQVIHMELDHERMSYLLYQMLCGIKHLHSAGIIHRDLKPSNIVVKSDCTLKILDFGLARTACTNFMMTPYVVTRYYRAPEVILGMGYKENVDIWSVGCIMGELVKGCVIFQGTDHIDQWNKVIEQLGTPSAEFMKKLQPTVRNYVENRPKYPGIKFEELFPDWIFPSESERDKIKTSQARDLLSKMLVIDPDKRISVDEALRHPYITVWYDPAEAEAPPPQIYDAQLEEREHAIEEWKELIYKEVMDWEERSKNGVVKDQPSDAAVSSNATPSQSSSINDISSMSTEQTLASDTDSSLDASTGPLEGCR

Legend:
[1] = molecular target: Mitogen-activated protein kinase 8 (Homo sapiens, UniProt P45983); assay: Inhibition of Nano-Luc fused JNK1 (unknown origin) expressed in HEK293T cells pretreated for 3 hrs followed by K5-tarcer addition and measured after 1 hr by NanoBRET assay; format: cell-based
[2] = molecular target: Mitogen-activated protein kinase 9 (Homo sapiens, UniProt P45984); assay: Inhibition of Nano-Luc fused JNK2 (unknown origin) expressed in HEK293T cells pretreated for 3 hrs followed by K5-tarcer addition and measured after 1 hr by NanoBRET assay; format: cell-based

Row | Compound | IC50 [1] | IC50 [2]
1 | Cc1cc(NC(=O)c2cccc(NC(=O)/C=C/CN(C)C)c2)ccc1Nc1nccc(-c2cccnc2)n1 | 26 nM | –
2 | C[C@H]1CN(C(=O)c2ccc(NC(=O)/C=C/CN(C)C)cc2)C[C@H]1Nc1nccc(-c2c(-c3ccccc3)nn3ccccc23)n1 | – | 132 nM
